Reference: patent US20260098054A1, “COMPOSITIONS AND METHODS FOR CONSTRUCTING CONJUGATES” (priority 2022, published 2026)

Assays:
[1] = Stability test of conjugates (checked by LCMS); assay type: physicochemical; settings: aqueous solvents under air atmosphere over a wide pH range
Protocol: FIGS. 5A-5C are line graphs of stability test and biological evaluations of PDC 1-6. […] The compound was checked by LCMS after 24 h and 48 h.

U87-MG cells = test: In vitro cytotoxicity assay (CCK-8) in U87-MG cells; settings: U87-MG (high αvβ3 integrin), 48 h incubation, fold of free DM1 activity
Protocol: (§1) Cells were plated in 96-well microplates at a density of 5×10^4 cells/well for 24 h for attachment, 90 μl of DMEM with 10% FBS and 100 U/mL P/Swas added to each well. PDCs 1-6 were first dissolved in DMSO respectively, at a concentration of 10 mM, followed by serial dilution in culture medium to achieve different concentrations as specified. For U87-MG cells, the concentration of compounds administered ranged from 1.37 to 27000 nM. While for HEK-293T cells, the concentration of compounds administered ranged from 0.03 to 1000 nM. The cells treated with the compounds were then incubated for 48 h. 10 μl of CCK-8 solution was then added to each well and incubated for 30 min. Absorbance was acquired at 450 nm using a spectrophotometer (Synergy HTX, Biotek). Three experiments were performed separately in triplicates and the data was processed using the GraphPad Prism (GraphPad Software, La Jolla, CA).
(§2) Next, the biological activities of these conjugates were evaluated.
Then, the in vitro antitumor efficacy of PDCs 1-6 was examined by CCK-8 assay (FIG. 5B). The IC50 of free DM1 and its conjugates were compared internally within the same cell line, to determine the potency of the six compounds.

HEK-293T cells = test: In vitro cytotoxicity assay (CCK-8) in HEK-293T cells; settings: CCK-8, PDCs 1-6
Protocol: as §1, §2
The peptide-drug conjugates were tested on the negative control cell line.

## OPA-c [RGDfK]-DM1-DMAC conjugate [PDC-2]
[1]
  stability in comparison to PDC-1: enhanced stability
U87-MG cells
  cytotoxicity compared to free DM1 (IC50 compared within the same cell line): 0.09 fold
HEK-293T cells
  cytotoxicity in words (ranking among the six compounds): least cytotoxicity
